## Measured affinities in a library of Ab-14 heavy chain variants

The measurements come from Li et al. 2023 (doi:10.1038/s41467-023-39022-2) through the FLAb antibody collection.

Target peptide (SARS-CoV-2 spike, HR2 region): PDVDLGDISGINAS

Each scFv is VH, the linker GGGGSGGGGSGGGGS, VL, as in the parent Ab-14, and differs from it in the CDRs of the heavy chain only.
VH: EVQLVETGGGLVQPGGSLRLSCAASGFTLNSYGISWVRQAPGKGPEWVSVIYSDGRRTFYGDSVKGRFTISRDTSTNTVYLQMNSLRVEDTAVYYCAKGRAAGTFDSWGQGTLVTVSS
VL: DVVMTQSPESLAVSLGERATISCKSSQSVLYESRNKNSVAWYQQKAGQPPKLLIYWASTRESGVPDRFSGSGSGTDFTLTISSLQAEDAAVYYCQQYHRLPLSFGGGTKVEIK

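The variants were designed computationally from a first round of random CDR variants and then made and measured. Several design methods are mixed in this list. In AlphaSeq, yeast of one mating type display the scFv and yeast of the other type display the target. Binding brings cells together so that they mate, and sequencing counts the barcode pairs among the diploids. A regression on co-assayed BCL2-family reference pairs converts the normalised counts of each replicate to an apparent Kd. The assay was run in six technical replicates.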

Each variant is given by its three heavy chain CDRs, as the data file delimits them; those of the parent are GFTLNSYGIS, VIYSDGRRTFYGDSVK, GRAAGTFDS. Numbers give log10(Kd / nM), so 0 is 1 nM and 3 is 1 µM. Smaller is tighter. A mean of the replicates is given; it leaves out those without a signal. A pair that was not seen in that replicate is written "nd"; this usually means weak binding, but a binder can also be missed. Of ten entries with the parent sequence, four were seen in most replicates (averages 0.34 to 2.37), three in one and three in none, so single entries are noisy. The authors averaged sequences with at least three values out of six and counted those with two or fewer as poor binders. Three control strains display no target. For all heavy chain designs, 1% of the pairings with them gave a signal, with a median of 2.08 and one signal in twenty below 0.84, so weak values seen in few replicates may be background. A sequence measured in both rounds can read differently, since the two assays cover different ranges.

log10 Kd, replicates | mean, log10 nM | CDR-H1 | CDR-H2 | CDR-H3
-0.17 / -0.46 / -0.42 / -0.26 / -0.65 / -0.33 | -0.38 | GFDLDEYGIS | VIYADGMRTAYADSVK | GNVAGTFDV
0.60 / 0.12 / 0.10 / 0.66 / 0.29 / 0.19 | 0.33 | KFDLNSYGIS | VIYSDGRRTFYQDSVK | GREAGTFDS
0.55 / 0.64 / 0.31 / 0.50 / 0.54 / 1.13 | 0.61 | GFELNSYGIS | VIYSDGRRTFYVDSVK | GRQAGTFDT
0.03 / 1.35 / 0.00 / 1.35 / 1.01 / nd | 0.75 | GFDLNEYGIS | VIYADGKRTAYADSVK | GNQAGTFDI
0.79 / 0.57 / 0.35 / 0.62 / 0.63 / 0.61 | 0.59 | GFTLDSYGIS | VIYSDGRRTFYSDSVK | GRAGGTFDT
-0.16 / nd / 1.20 / 2.04 / nd / 1.46 | 1.13 | GFDLNEYGIS | VIYADGMRKAYADSVK | GENAGTFDM
0.97 / 1.12 / 0.90 / 1.09 / 1.13 / 1.00 | 1.03 | GFTLNSYGIS | VIYSDGKRTFYGDNVK | GRVAGTFDS
-0.71 / -0.57 / -0.33 / -0.62 / -0.50 / -0.41 | -0.52 | GFPLNHYGIS | VIYADGRRTFYGDSVK | GEAAGTFDS
0.18 / 1.07 / 0.55 / 0.80 / 1.27 / 1.70 | 0.93 | GFKIEEYGIS | VIYADGVRMMYASNFK | GKIAGTFNL
0.82 / 1.23 / 0.78 / 0.55 / 0.30 / 1.43 | 0.85 | GFELNEYGIS | VIYADGMKQAYRDAVK | GGIAGNFMQ
0.72 / 0.35 / nd / -1.20 / 0.23 / -0.59 | -0.10 | GFDLNEYGIS | VIYADGKRTAYADSVK | GNQAGTFDV
nd / 0.07 / 1.63 / 1.33 / 1.02 / nd | 1.01 | GFDLNSYGIS | VIYSDGRRTWYGDSVK | GRTAGTFDS
nd / nd / nd / nd / nd / nd | nd | GFTLNQYGIS | VIYSDGQRTFYSDSVK | GRAAGKFDS
0.12 / 0.55 / 1.66 / -0.03 / 0.30 / 0.49 | 0.51 | GFDLNSYGIS | VIYSDGRRTFYVDSVK | GDAAGTFDS
-0.08 / -0.48 / -0.50 / -0.60 / -0.54 / -0.57 | -0.46 | GFDLNEYGIS | VIYADGMRKAYSDSVK | GNQAGTFDV
2.48 / 2.64 / nd / 2.48 / nd / nd | 2.53 | GFHLNDYGIS | VIYSDGRRTFYIDSVK | GRQAGTFDS
0.05 / -0.15 / -0.07 / -0.24 / -0.32 / 0.12 | -0.10 | GFDLNEYGIS | VIYADGMRTAYADDVK | GQVAGTFDL
nd / nd / 1.81 / 2.12 / 1.65 / 2.33 | 1.98 | GFTLPQYGIS | VIYSDGRRTFYSDSVK | GRAAGFFDS
nd / nd / nd / nd / nd / nd | nd | GFQLDEVGIS | VIYADGIRRAYASKVK | GGDGGSFDL
-0.56 / 0.14 / -0.82 / -0.98 / -0.60 / -0.59 | -0.57 | GFDLNEYGIS | VIYADGRRTAYIDSVK | GEVAGTFDK
nd / 4.50 / nd / nd / nd / nd | 4.50 | GADINEYGIS | VIYADGNRIAYQDQVK | GFNAGSFDI
nd / nd / nd / 2.15 / nd / 1.88 | 2.02 | FNIGEDYGIS | VIYADGLRSAYVNSVK | GEVAGTFDS
0.03 / -0.33 / -0.74 / -0.41 / -0.23 / 0.24 | -0.24 | GFDLNEYGIS | VIYADGSRTAYADSVK | GGNAGTFDI
nd / nd / nd / nd / nd / nd | nd | GFSLDEYGIS | VIYADGQRKSYTDNVK | GYQGSRVSL
nd / nd / nd / nd / nd / nd | nd | GEDLQEYGIS | VIYADGFRQSYSEKVK | GQHGGFLVK
nd / nd / nd / nd / nd / nd | nd | GFDLNSYGIS | VIYSDGRRTFYGDSVK | GRHAGTFDT
-0.18 / -0.23 / -0.46 / -0.54 / -0.39 / -0.34 | -0.36 | GFDLNEYGIS | VIYADGRRTFYADSVK | GSQAGTFDM
nd / nd / 1.75 / 1.73 / nd / 3.89 | 2.46 | GFTLNEYGIS | VIYSDGRRTFYTDSVK | GRCAGTFDE
-0.34 / -0.59 / 0.17 / -0.90 / -0.26 / -0.92 | -0.47 | GFDLNSYGIS | VIYSDGKRTFYADSVK | GRNAGTFDS
nd / nd / nd / nd / nd / nd | nd | GFTLNSYGIS | VIYSDGLRVFYGDSVK | GTAIGTFDS
0.00 / 0.25 / -0.66 / -0.52 / -0.57 / -0.46 | -0.33 | GFDLNEYGIS | VIYADGMRTSYVDSVK | GNVAGTFDV
nd / nd / nd / nd / nd / 1.82 | 1.82 | GFSLNSYGIS | VIYADGRRTFYGDSVK | GRAAGTNDS